Literature values, collected in patent publication US11718654B2, “IL-2R-βγ binding compounds” (MEDIKINE, INC., priority 2019, dated 2023).

Key:
[1] = tested on: melanoma and renal carcinoma; conditions: patients with melanoma and renal carcinoma; cited from earlier work
tumor = conditions: in vivo; cited from earlier work

| Substance | Durable responses, share of patients [1] | Neoantigen-specific T-cell responses (tumor) |
| --- | --- | --- |
| IL-2: Recombinant human Interleukin-2, natural cytokine, reference IL-2R agonist | up to 10% | – |
| bempegaldesleukin (NKTR-214): reported to be a biased IL-2Rβγc agonist; combined with neo-antigen vaccine VB10.NEO | – | Synergistic effects on neoantigen-specific T-cell responses were observed |
